According to patent US10973820B2, “Compounds for treatment of diseases related to DUX4 expression” (Facio Intellectual Property B.V., priority 2017, dated 2021):
pIC50: −log10 of the molar value.

Chains of the proteins cited; added tags and fusions are not shown. Lines headed by an entry give the natural chain unless they say otherwise; changes in a name come on top.
UniProt P48730: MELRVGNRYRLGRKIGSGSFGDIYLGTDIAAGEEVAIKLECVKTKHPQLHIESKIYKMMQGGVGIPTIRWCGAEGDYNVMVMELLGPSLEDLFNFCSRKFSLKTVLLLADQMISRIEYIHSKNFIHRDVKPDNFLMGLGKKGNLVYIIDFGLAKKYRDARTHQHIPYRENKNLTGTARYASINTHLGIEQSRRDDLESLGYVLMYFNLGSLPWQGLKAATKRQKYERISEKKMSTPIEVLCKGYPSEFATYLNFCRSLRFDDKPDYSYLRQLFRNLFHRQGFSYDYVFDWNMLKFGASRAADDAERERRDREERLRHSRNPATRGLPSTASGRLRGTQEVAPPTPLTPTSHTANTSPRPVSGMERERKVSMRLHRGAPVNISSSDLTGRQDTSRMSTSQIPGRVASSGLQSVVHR
UniProt P49674: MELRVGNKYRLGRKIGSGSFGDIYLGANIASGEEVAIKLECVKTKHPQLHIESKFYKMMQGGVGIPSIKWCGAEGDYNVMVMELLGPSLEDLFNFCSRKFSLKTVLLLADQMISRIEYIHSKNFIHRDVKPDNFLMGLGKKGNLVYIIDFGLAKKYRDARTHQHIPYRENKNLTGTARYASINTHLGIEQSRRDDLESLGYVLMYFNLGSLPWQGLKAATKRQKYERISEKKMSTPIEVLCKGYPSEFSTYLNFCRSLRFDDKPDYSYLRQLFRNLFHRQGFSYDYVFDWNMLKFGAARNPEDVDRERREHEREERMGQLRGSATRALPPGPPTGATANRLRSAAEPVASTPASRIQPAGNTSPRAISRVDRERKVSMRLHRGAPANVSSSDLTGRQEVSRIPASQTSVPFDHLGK

Assays:
CK1 δ = CK1 δ (Homo sapiens, UniProt P48730); assay: inhibition of CK1 δ by CK1 inhibitors; type: biochemical
CK1 ε = CK1 ε (Homo sapiens, UniProt P49674); assay: inhibition of CK1 ε by CK1 inhibitors; type: biochemical

Structure (SMILES): CN1Cc2nccc(-c3cn(C)nc3-c3ccc(F)cc3)c2C1=O [Compound E]
- pIC50 (CK1 δ): 7.51
- pIC50 (CK1 ε): 7.08
